# The list shows a part of the results, in another mix than the full data. Records with an inconclusive call do not appear. Calls of active or inactive are those of the source. Calls come from the whole dose curve; as a rule, active = well fitted inhibition curve with a large enough effect; inconclusive = small, poorly fitted or top-dose-only effect, or another doubt; inactive = no such curve, though single readings can be large or run the other way.
# Chains of the proteins cited; added tags and fusions are not shown.
# UniProt P18054, whole entry: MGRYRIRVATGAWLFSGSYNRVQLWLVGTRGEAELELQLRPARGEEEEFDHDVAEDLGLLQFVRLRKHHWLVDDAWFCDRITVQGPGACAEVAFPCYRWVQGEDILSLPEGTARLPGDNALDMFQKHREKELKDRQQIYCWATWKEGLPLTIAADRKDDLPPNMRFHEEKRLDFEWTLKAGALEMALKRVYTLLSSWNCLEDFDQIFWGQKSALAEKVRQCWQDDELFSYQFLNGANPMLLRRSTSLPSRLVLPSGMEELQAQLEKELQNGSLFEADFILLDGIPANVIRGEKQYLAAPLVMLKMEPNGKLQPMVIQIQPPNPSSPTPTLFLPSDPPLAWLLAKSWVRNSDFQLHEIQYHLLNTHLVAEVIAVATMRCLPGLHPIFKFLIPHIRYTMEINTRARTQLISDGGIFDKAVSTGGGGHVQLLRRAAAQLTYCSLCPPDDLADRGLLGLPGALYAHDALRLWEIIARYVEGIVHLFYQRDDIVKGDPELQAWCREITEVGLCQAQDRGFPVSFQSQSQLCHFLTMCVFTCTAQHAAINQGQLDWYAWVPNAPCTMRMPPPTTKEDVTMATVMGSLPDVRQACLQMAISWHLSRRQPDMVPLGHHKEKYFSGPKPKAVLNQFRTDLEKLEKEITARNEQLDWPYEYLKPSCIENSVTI
# Molecular target: Polyunsaturated fatty acid lipoxygenase ALOX12 (Homo sapiens) (UniProt P18054)
# Experiment: Primary qHTS assay for inhibitors of human arachidonate 12S-lipoxygenase (ALOX12): Round 2
# Conditions: purified 12hLO, xylenol orange hydroperoxide absorbance; series mostly up to 108 µM; activity change, negative = inhibition: at the top concentration
# Text: Assay Provider: Theodore R. Holman Ph.D. University of California, Santa Cruz, California Human lipoxygenase 12hLO is a member of the closely related lipoxygenase family of enzymes which catalyze the site-specific oxidation of arachidonic acid to various hormone precursor molecules and as such is a candidate for drug development in a variety of disease areas, such as cancer and inflammation. Inhibition of 12hLO activity was screened by utilizing arachidonic acid as a substrate. The extent of hydroperoxide product formation was measured by a secondary chromogenic reaction in which xylenol orange (XO, Sigma-Aldrich, cat. number 39,818-7) reacts with the ferric ions produced from the reaction between the hydroperoxide and ferrous ions. The Fe (III)-XO complex is characterized with red-shifted absorbance at 560 nm. A purified preparation of human 12hLO was supplied by Dr. Holman laboratory, University of California, Santa Cruz.
# PROTOCOL TABLE SEQUENCE No. (e.g., 1, 2, 3, etc.); […] (e.g., Cells, Incubation, Reagent, etc.); VALUE; DESCRIPTION 1; Enzyme; 3 uL; 150 nM 12hLO enzyme solution dispensed in 1536-well Greiner black, clear bottom plates. 2; Compound; 23 nL; compounds and controls were added. 3; Incubate; 15 min; room temperature. 4; Substrate; 1 uL; 40 uM arachidonic acid (final concentration). 5; Incubate; 30 min; room temperature. 6; Reagent; 4 uL; Fe-XO solution was added to each well. 7; Incubation; 30 min; room temperature 8; Detector; absorbance; Read 1 at 405 nm absorbance using ViewLux (Perkin-Elmer) CCD imager. 9; Detector; absorbance; Read 2 at 573 nm absorbance using ViewLux (Perkin-Elmer) CCD imager. NOTES (numbers refer to sequence above) 1; 150 nM 12hLO (final concentration) in buffer solution (25 mM Hepes, 0.01% Triton X-100, pH 7.0) was dispensed in columns 1, 2, 5-48. Column 1 is neutral (100% activity). Buffer only was dispensed in columns 3 and 4 as no enzyme negative controls. The plates were covered with metal lids with gas-exchange holes. 2; Compounds were pin transferred via a Kalypsys Pin Tool (Wako USA) in column 5-48. Control compound was transferred in column 2, titration of nordihydroguaiaretic acid (NDGA, Sigma-Aldrich, N5023) with top concentration of 20 mM in DMSO then 1:3 dilution in duplicate. Dilution factor of 23 nL into 4 uL final assay volume. 3; Covered assay plates were incubated for 15 min at room temperature. 4; Substrate was added to start the reaction; 40 uM arachidonic acid (Sigma-Aldrich, St. Louis, MO) was dispensed throughout the plate. 6; Chromogenic detection reagent solution (divalent iron/xylenol orange, Fe-XO) was added to each well: 200 uM xylenol orange, 300 uM ferrous ammonium sulfate prepared freshly in 50 mM sulfuric acid. 8, 9; Two absorbance readouts were obtained at 405 nm and at 573 nm using a ViewLux high-throughput CCD plate imager (Perkin-Elmer). The 573 to 405 (Read 2 / Read 1) absorbance ratio was used to compute reaction progress.
# % is set by controls: 0 for no effect and ±100 for the full control effect; potency is the fitted concentration of half-maximal effect.
SMILES,"activity change, negative = inhibition",Potency
CC(C)(C)n1nnnc1C(c1cccc2ccccc12)N1CCC(n2c(=O)[nH]c3ccccc32)CC1 (stereo not given),inactive: -16.3%,
O=c1[nH]c2ccccc2n1C1CCN(C(c2ccccc2)c2nnnn2C2CCCC2)CC1 (stereo not given),inactive: 4.22%,
Cc1cc(N(CCCl)CCCl)ccc1C=O,inactive: -1.6%,
c1ccc(CN2CCC(Nc3ccccc3)CC2)cc1,inactive: 0% [at 57.4 µM],
C/C(N)=N\P(=O)(Oc1ccccc1)Oc1ccccc1,inactive: 4.65%,
CN(C)C1(CNC(=O)c2cccc(C#N)c2)CCCCC1,inactive: 4.9%,
CC1C(=O)CCN(CCc2ccccc2)C1C (stereo not given),inactive: -19.1%,
CC(C)(C)OC(=O)N1CCC(N(C(=O)c2ccccc2)c2ccc(Cl)cc2)CC1,inactive: 0.429%,
O=C(NCC1(N2CCOCC2)CCCCC1)c1ccc([N+](=O)[O-])cc1,inactive: -19.1%,
N#Cc1ccc(C(=O)NCC2(N3CCCCC3)CCCCC2)cc1,inactive: -10.2%,
O=c1[nH]c2ccccc2n1C1CCN(C(c2cccs2)c2nnnn2C2CCCC2)CC1 (stereo not given),inactive: -4.08%,
O=C(O)c1cccc(Nc2c([N+](=O)[O-])cc([N+](=O)[O-])cc2[N+](=O)[O-])c1,inactive: -29.1%,
O=C(OC1CN2CCC1CC2)C1c2ccccc2C=Cc2ccccc21 (stereo not given),inactive: 13.4%,
N/C(=N\O)c1c(N)no[n+]1[O-],inactive: 2.73%,
Cc1cc(NC2CCN(Cc3ccccc3)CC2)ccc1Br,inactive: -28.8%,
O=C(NCC1(N2CCCCC2)CCCCC1)c1n[nH]c(=O)c2ccccc12,inactive: -6.12%,
COc1ccc(C(=O)NCC2(N3CCOCC3)CCCCC2)cc1OC,inactive: -3.75%,
O=c1[nH]c2ccccc2n1C1CCN(C(c2cccs2)c2nnnn2C2CCCCC2)CC1 (stereo not given),inactive: -6.15%,
O=C(NCC1(N2CCOCC2)CCCCC1)c1n[nH]c(=O)c2ccccc12,inactive: -3.81%,
O=C(NCC1(N2CCOCC2)CCCCC1)c1cc(Br)ccc1Cl,inactive: 1.74%,
CCCCn1nnnc1C(c1ccccc1)N1CCC(n2c(=O)[nH]c3ccccc32)CC1 (stereo not given),inactive: -7.56%,
CN1CCC(Nc2ccc(Cl)cc2)CC1,inactive: 12.5%,
CCC(CO)(C(=O)OC1CN2CCC1CC2)c1ccccc1 (stereo not given),inactive: 487%,
COc1cc(C(=O)NCC2(N3CCOCC3)CCCCC2)cc(OC)c1OC,inactive: -23.6%,
COc1cc(OC)cc(C(=O)NCC2(N3CCOCC3)CCCCC2)c1,inactive: 5.74%,
COc1cccc(C(c2nnnn2C2CCCC2)N2CCC(n3c(=O)[nH]c4ccccc43)CC2)c1OC (stereo not given),inactive: 1.87%,
COc1cccc(C(=O)N(c2cc(C)cc(C)c2)C2CCN(C(=O)OC(C)(C)C)CC2)c1,inactive: -7.17%,
CCCOc1ccc(C(=O)NCC2(N(C)C)CCCCC2)cc1,inactive,

SMILES,"activity change, negative = inhibition",Potency
O=c1[nH]c2ccccc2n1C1CCN(C(c2cc3ccccc3o2)c2nnnn2C2CCCC2)CC1 (stereo not given),inactive: -16.7%,
CC(C)(C)OC(=O)N1CCC(Nc2ccccc2)CC1,inactive: 2.09%,
CCCOc1ccccc1C(=O)NCC1(N(C)C)CCCCC1,inactive: -24.8%,
CCOc1ncccc1C(=O)NCC1(N2CCOCC2)CCCCC1,inactive: 0.141%,
Cc1ccc2oc(C(=O)NCC3(N4CCCCC4)CCCCC3)cc(=O)c2c1,inactive: -44.8%,
Cn1c(=O)[nH]cc(N(CCCl)CCCl)c1=O,inactive: -32.4%,
CC1CN(CCc2ccccc2)C(C)CC1=O (stereo not given),inactive: 0.161%,
CN(C)c1ccc(C(=O)NCC2(N3CCCCC3)CCCCC2)cc1,inactive: 0%,
O=C(NCC1(N2CCCCC2)CCCCC1)c1ccco1,inactive: 9.07%,
Cc1ccccc1C(=O)NCC1(N(C)C)CCCCC1,inactive: -10.7%,
COc1ccc(C(c2nnnn2C2CCCCC2)N2CCC(n3c(=O)[nH]c4ccccc43)CC2)cc1 (stereo not given),inactive: -67.1%,
Cn1cc(C(=O)NCC2(N3CCOCC3)CCCCC2)c2ccccc21,inactive: -11.9%,
Cc1ccccc1NC1(C#N)CCN(Cc2ccccc2)CC1,inactive: -4.79%,
Cc1ccc(NC2(C#N)CCN(Cc3ccccc3)CC2)cc1,inactive: 7.02%,
Cc1ccc(C(=O)NCC2(N3CCCCC3)CCCCC2)o1,inactive: 12.3%,
O=c1[nH]c2ccccc2n1C1CCN(C(c2ccnc3ccccc23)c2nnnn2C2CCCCC2)CC1 (stereo not given),inactive: -14.8%,
COc1cc(OC)cc(C(=O)NCC2(N3CCCCC3)CCCCC2)c1,inactive: -11.2%,
CCC(c1nnnn1C1CCCCC1)N1CCC(n2c(=O)[nH]c3ccccc32)CC1 (stereo not given),inactive: 3.5%,
CC(=O)N(c1ccccc1)C1CCNCC1,inactive: 17.4%,
CN(C)C1(CNC(=O)c2ccc(C(C)(C)C)cc2)CCCCC1,inactive: -23.9%,
COc1cccc(C(c2nnnn2C2CCCCC2)N2CCC(n3c(=O)[nH]c4ccccc43)CC2)c1OC (stereo not given),inactive: 5.2%,
O=c1[nH]c2ccccc2n1C1CCN(C(c2cccc3ccccc23)c2nnnn2C2CCCC2)CC1 (stereo not given),inactive: -6.95%,
O=C(NCC1(N2CCCCC2)CCCCC1)c1c[nH]c2ccccc12,inactive: 15.5%,
COc1cc(C(=O)NCC2(N(C)C)CCCCC2)ccc1OC(F)F,inactive: 2.46%,
CCOC(=O)C(=O)CBr,,active: 4.32 µM
CCOC(=O)N1CCC(Nc2ccc(F)cc2)CC1,inactive: 5.57%,
O=C(NCC1(N2CCCCC2)CCCCC1)c1ccc(F)cc1,inactive: -39.9%,
